Assay results: ChEMBL document CHEMBL1126898 (J Med Chem, 1993)

Amino acid sequences for entries named in this document (tags omitted).
UniProt P23977, whole entry: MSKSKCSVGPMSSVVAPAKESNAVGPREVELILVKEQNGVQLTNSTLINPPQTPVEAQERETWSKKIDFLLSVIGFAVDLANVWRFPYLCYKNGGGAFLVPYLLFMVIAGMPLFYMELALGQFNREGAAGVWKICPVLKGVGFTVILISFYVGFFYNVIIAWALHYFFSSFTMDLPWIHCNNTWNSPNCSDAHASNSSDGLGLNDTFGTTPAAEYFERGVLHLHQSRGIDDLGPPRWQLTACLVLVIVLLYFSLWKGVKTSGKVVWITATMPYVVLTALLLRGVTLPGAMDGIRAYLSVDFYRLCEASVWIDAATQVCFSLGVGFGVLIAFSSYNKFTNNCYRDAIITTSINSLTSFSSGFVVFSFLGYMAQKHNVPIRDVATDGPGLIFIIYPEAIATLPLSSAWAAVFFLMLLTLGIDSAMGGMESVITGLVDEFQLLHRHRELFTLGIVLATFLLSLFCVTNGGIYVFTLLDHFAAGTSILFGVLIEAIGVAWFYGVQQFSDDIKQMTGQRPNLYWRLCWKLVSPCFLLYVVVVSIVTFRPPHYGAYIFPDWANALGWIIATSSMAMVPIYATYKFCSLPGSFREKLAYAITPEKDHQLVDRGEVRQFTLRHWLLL

Biological target: Sodium-dependent dopamine transporter (Rattus norvegicus, UniProt P23977)
Assay: Inhibition of [3H]WIN-35428 binding to dopamine transporter in rat striatal membranes.
Format: cell membranes, Membrane

For `COC(=O)C1C2CCC(C[C@H]1c1ccc(OC)cc1)N2C` (stereo partly specified), the IC50 was 8 nM.
